{"sequences": {"note": "Sequences of proteins named here, by UniProt entry; tags and fusion partners are left off.", "UniProt P29475, whole entry": "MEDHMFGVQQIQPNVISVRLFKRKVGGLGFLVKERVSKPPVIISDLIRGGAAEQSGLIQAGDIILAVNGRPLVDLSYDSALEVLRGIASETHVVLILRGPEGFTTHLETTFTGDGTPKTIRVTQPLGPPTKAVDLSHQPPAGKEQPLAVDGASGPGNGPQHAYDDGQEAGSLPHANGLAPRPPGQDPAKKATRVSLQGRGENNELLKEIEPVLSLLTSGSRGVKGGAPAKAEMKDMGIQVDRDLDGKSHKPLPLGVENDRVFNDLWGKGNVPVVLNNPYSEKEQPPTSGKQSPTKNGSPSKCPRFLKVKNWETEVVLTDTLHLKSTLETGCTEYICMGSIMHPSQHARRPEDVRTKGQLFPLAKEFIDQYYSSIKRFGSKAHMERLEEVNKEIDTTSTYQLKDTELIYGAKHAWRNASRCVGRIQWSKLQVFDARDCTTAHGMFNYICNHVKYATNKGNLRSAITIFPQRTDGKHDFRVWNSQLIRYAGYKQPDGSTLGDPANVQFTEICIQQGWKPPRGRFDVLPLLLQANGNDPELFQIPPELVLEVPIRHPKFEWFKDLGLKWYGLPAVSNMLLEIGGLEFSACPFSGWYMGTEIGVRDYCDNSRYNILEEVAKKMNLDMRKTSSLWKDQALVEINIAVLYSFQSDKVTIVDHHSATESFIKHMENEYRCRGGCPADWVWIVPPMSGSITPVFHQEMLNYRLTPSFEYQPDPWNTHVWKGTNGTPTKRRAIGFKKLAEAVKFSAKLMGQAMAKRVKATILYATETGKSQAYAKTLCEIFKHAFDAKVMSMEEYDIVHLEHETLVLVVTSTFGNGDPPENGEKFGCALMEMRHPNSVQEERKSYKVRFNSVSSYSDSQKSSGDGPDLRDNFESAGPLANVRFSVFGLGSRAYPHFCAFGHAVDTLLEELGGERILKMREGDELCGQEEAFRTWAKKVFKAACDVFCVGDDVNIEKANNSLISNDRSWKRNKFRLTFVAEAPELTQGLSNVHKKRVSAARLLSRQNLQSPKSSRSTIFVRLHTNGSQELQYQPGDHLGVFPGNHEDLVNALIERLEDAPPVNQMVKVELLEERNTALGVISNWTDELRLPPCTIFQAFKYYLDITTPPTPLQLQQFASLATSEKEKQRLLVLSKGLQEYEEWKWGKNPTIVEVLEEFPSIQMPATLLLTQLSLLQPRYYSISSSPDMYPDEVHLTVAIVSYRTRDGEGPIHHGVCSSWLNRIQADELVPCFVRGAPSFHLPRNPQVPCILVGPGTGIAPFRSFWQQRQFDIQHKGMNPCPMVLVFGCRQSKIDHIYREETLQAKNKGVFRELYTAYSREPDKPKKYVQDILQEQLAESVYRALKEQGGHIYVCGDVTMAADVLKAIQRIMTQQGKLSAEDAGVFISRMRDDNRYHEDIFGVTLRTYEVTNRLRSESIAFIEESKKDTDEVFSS", "UniProt P35228, whole entry": "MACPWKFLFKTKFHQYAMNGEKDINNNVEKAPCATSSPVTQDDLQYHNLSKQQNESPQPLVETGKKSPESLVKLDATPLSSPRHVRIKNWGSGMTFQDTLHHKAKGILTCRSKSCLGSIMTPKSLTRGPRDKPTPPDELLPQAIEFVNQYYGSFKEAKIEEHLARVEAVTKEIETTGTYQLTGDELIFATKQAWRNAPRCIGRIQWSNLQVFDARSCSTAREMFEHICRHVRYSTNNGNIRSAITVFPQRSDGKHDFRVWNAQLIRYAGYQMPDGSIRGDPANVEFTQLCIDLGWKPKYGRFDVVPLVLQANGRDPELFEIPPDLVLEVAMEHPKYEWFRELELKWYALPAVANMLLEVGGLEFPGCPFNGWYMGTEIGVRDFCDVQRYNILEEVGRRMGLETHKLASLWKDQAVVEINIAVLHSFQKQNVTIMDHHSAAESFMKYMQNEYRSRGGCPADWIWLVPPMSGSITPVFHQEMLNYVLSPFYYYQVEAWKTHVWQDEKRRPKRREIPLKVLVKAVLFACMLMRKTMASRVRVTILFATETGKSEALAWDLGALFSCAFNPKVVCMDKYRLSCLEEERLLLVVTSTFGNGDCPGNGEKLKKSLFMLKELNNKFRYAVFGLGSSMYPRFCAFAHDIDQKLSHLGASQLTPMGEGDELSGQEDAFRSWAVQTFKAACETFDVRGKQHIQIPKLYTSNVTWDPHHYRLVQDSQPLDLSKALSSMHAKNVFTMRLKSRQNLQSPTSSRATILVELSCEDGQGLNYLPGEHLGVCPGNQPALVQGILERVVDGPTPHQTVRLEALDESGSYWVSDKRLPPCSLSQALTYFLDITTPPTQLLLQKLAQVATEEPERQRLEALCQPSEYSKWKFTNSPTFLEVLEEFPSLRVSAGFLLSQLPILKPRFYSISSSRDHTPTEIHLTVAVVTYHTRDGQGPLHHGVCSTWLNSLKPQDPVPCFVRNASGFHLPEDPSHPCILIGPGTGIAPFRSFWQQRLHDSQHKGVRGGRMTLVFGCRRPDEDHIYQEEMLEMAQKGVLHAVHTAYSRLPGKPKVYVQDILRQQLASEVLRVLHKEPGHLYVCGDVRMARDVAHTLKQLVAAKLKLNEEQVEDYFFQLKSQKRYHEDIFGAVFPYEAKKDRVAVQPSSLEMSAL"}, "source": "ChEMBL document CHEMBL1138708", "about": "“Synthesis of analogs of (1,4)-3- and 5-imino oxazepane, thiazepane, and diazepane as inhibitors of nitric oxide synthases” (Bioorg Med Chem Lett, 2004)", "key": {"Nitric oxide synthase 1": {"target": "Nitric oxide synthase 1 (Homo sapiens, UniProt P29475)", "test": "Inhibitory concentration against Neuronal nitric oxide synthase"}, "[1]": {"target": "Nitric oxide synthase, inducible (Homo sapiens, UniProt P35228)", "test": "Inhibitory concentration against Inducible nitric oxide synthase"}}}
{"smiles": "NC1=NCCCOC1", "values": [{"measurement": "IC50", "setting": "Nitric oxide synthase 1", "value": 160, "unit": "nM"}, {"measurement": "IC50", "setting": "[1]", "value": 160, "unit": "nM"}]}
